Target: recombinant human α5β1 (Homo sapiens, UniProt P05556+P08648)
Assay: In Vitro Binding Assay (a): inhibition of binding of α5β1 integrin to a fragment of human fibronectin (Fn9-10), Origen electrochemiluminescence
Source text: The assay determined the ability of compounds to inhibit binding of α5β1 integrin to a cognate ligand, a fragment of human fibronectin. The assay used Origen technology (IGEN International) to measure the compound activity. Briefly, α5β1 integrin was coated onto epoxy-paramagnetic beads (Dynal Biotech UK, Bromborough, Wirral, CH62 3QL, UK, Catalogue No 140.11) and biotinylated-fibronectin ligand was coupled to strepatividin labeled Tag-NHS-Ester (BioVeris Corporation, Witney, Oxfordshire, OX28 4GE, UK, Catalogue No 110034). The ruthenium-labeled tag emits an electrochemiluminescence signal upon stimulation which is detected by the Origen reader. […]
20 μg of recombinant human α5β1 was coated onto 4×10(7) epoxy-paramagnetic beads according to manufacturers instructions at 4° C. for 24 hours. Integrin coating and corresponding activity was subsequently measured for each batch but typically, 25 ng of coated protein was used per assay well. […]
For the assay, 25 ng (20 ul) of a5b1-bead suspension and 40 μl of the Fn9-10/Tag pre-incubated solution were added to each well containing 20 μl of compound or control solution. Assay plates were then incubated at room temperature for a minimum of 6 hours before being analysed on an Origen plate reader. […]

Chains of the proteins cited; added tags and fusions are not shown. Residues count along the entry.
UniProt P08648, 42-1049: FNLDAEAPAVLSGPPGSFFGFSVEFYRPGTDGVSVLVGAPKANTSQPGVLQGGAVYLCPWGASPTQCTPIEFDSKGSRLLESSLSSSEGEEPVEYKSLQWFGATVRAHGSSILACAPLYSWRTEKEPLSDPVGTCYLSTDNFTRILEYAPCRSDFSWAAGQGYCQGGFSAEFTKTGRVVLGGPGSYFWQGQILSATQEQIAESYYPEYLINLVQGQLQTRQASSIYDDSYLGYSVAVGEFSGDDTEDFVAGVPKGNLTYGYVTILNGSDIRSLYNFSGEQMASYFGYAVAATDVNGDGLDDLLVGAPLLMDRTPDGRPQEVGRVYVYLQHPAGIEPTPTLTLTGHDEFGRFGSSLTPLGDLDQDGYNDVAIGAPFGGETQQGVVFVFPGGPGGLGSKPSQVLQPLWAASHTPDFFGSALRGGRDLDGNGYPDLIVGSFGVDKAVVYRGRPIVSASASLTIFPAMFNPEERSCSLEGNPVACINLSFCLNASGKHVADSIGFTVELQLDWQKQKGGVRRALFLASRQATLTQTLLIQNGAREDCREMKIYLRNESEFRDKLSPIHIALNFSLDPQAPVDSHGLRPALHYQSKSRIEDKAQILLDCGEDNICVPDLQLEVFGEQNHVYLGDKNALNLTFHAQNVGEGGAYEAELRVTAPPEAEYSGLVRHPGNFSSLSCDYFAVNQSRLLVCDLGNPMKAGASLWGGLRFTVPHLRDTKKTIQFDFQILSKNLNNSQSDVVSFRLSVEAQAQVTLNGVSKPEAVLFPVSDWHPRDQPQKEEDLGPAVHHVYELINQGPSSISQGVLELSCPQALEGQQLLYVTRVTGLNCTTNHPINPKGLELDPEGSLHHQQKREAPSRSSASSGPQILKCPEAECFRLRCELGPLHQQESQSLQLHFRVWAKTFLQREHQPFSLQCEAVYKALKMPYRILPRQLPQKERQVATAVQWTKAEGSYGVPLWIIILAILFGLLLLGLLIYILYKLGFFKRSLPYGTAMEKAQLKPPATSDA

CNc1cccc(CCOc2ccc(C[C@H](NC(=O)c3c(C)noc3C)C(=O)O)cc2)n1 [Example 1.9, N-[(3,5-dimethylisoxazol-4-yl)carbonyl]-O-{2-[6-(methylamino)pyridin-2-yl]ethyl}-L-tyrosine]
IC50: 1 nM
